Measured values taken from PubChem BioAssay (NCI).
Several values for one entry are separate records, joined by “and”; a condition that tells them apart may be missing. Identical values can stand only once. This is a selection; strong and weak results do not stand in their true shares. Some tests of the compounds listed are not included; inactive here does not mean inactive elsewhere. Where a structure was tested more than once in an assay, its records may differ in their call. Activity calls are given as the source filed them. No stated cut-off is given here; in the data, active means growth inhibition above about 70%; inactive means the rest.

What was measured:
[1] = NCI Yeast Anticancer Drug Screen. Data for the rad50 strain (AID 155);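 further: 0% = growth of vehicle-only cultures of the same strain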; conditions: S. cerevisiae rad50 strain growth inhibition, stronger effect = higher value
[2] = NCI Yeast Anticancer Drug Screen. Data for the mec2-1 strain (AID 157); conditions: S. cerevisiae mec2-1 strain, stronger effect = higher value
[3] = NCI Yeast Anticancer Drug Screen. Data for the sgs1 mgt1 strain (AID 161);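 further: 0% = growth of cultures given vehicle only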; conditions: S. cerevisiae sgs1 mgt1 strain, stronger effect = higher value
[4] = NCI Yeast Anticancer Drug Screen. Data for the cln2 rad14 strain (AID 165);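 further: 0% = growth equal to vehicle treated cultures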; conditions: S. cerevisiae cln2 rad14 strain, stronger effect = higher value
[5] = NCI Yeast Anticancer Drug Screen. Data for the bub3 strain (AID 167); conditions: S. cerevisiae bub3 mutant strain, stronger effect = higher value
[6] = NCI Yeast Anticancer Drug Screen. Data for the mlh1 rad18 strain (AID 175); conditions: S. cerevisiae mlh1 rad18 strain growth inhibition, stronger effect = higher value
[7] = NCI Yeast Anticancer Drug Screen. Data for the rad52 strain (AID 147);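 further: 0% = growth of vehicle-treated control cultures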; conditions: S. cerevisiae rad52 mutant growth inhibition, stronger effect = higher value
In short: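 Yeast strain carrying a DNA damage repair alteration was exposed to test compounds. Growth inhibition was measured relative to vehicle-treated controls.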

[8] = NCI Yeast Anticancer Drug Screen. Data for the wt1 strain (AID 149);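 further: 0% = growth of vehicle-treated wt1 cultures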; conditions: S. cerevisiae wt1 strain (SPY 50644) growth inhibition, stronger effect = higher value
In short: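 Growth inhibition read against vehicle controls after compound exposure of the wt1 yeast strain.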

[9] = NCI Yeast Anticancer Drug Screen. Data for the rad50EPP+ strain (AID 151);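 further: 0% = growth of vehicle-treated control cultures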; conditions: S. cerevisiae rad50 mutant strain, stronger effect = higher value
In short: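 Yeast strain carrying rad50 alteration (rad50EPP+) exposed to compounds; growth inhibition measured relative to vehicle-treated controls.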

[10] = NCI Yeast Anticancer Drug Screen. Data for the mgt1 strain (AID 153); conditions: S. cerevisiae mgt1 mutant growth inhibition, stronger effect = higher value
In short: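 Yeast mgt1 strain (DNA repair/cell-cycle alteration panel) exposed to compounds; growth inhibition measured relative to vehicle-treated controls.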

[11] = NCI Yeast Anticancer Drug Screen. Data for the rad14 strain (AID 159);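 further: 0% = growth of vehicle-treated control cultures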; conditions: S. cerevisiae rad14 strain growth inhibition, stronger effect = higher value
In short: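 Growth inhibition vs vehicle controls; genetically altered yeast strain (DNA damage repair defect) treated with test compounds.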

[12] = NCI Yeast Anticancer Drug Screen. Data for the CLN2oe strain (AID 163);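 further: 0% = growth of vehicle-only control cultures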; conditions: S. cerevisiae CLN2oe strain, stronger effect = higher value
In short: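 Yeast cells carrying a defined cell-cycle control alteration were exposed to test compounds. Growth inhibition was scored against vehicle-treated control cultures.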

[13] = NCI Yeast Anticancer Drug Screen. Data for the wt2 strain (AID 169);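 further: 0% = growth of vehicle-treated yeast cultures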; conditions: S. cerevisiae wt2 strain growth inhibition, stronger effect = higher value
In short: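 Yeast cells were exposed to test compounds, and growth inhibition was measured relative to vehicle-treated controls.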

[14] = NCI Yeast Anticancer Drug Screen. Data for the mlh1 strain (AID 171);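 further: 0% = growth of vehicle-treated control cultures of the same strain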; conditions: S. cerevisiae mlh1 strain growth inhibition, stronger effect = higher value
In short: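 Yeast carrying a defined genetic alteration in DNA damage repair or cell cycle control were exposed to test compounds. Growth inhibition was measured relative to vehicle-treated controls.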

[15] = NCI Yeast Anticancer Drug Screen. Data for the sgs1 strain (AID 173);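 further: 0% = growth of vehicle-only control cultures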; conditions: S. cerevisiae sgs1 mutant, stronger effect = higher value
In short: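 Yeast mutant strains carrying defined defects in DNA damage repair or cell cycle control were exposed to test compounds. Growth inhibition was scored against vehicle-treated controls.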

[16] = NCI Yeast Anticancer Drug Screen. Data for the rad18 strain (AID 177); conditions: S. cerevisiae rad18 mutant growth inhibition, stronger effect = higher value
In short: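 Yeast carrying a defined DNA damage repair alteration were exposed to compounds. Growth inhibition was expressed relative to vehicle-treated controls.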

[17] = at 5.0 µM (retest, dose inferred, filed as 0.5)
[18] = at 50.0 µM (retest, dose inferred, filed as 5.0)

Measured: growth inhibition

C=C(C)C#CC(O)(C(=O)OC1C2CCN(CC2)C1C)C1CCCCC1 (configuration not stated)
inactive: [1]; at 50.0 µM 0.8% | [2]; at 50.0 µM -4.95% | [3]; at 50.0 µM -25.3% | [4]; at 50.0 µM 14.8% | [5]; at 50.0 µM 21.1% | [6]; at 50.0 µM -1.65%

CC(C)C(O)(C(=O)OCC1=CN2CCC1CC2)c1ccccc1 (configuration not stated)
inactive: [1]; at 50.0 µM -0.2% | [2]; at 50.0 µM 17.1% | [3]; at 50.0 µM 0.5% | [4]; at 50.0 µM -0.55% | [5]; at 50.0 µM -6.45% | [6]; at 50.0 µM -13.5%

CCC#CC(O)(C(=O)OC1CC2CCC(C1)N2C)c1ccccc1 (configuration not stated)
inactive: [1]; at 50.0 µM 22.9% | [2]; at 50.0 µM 8.65% | [3]; at 50.0 µM 14.4% | [4]; at 50.0 µM 0.55% | [5]; at 50.0 µM 12.2% | [6]; at 50.0 µM 20%

Cc1cc(C)c(O)c(CN(CC(C)Cl)CC(C)Cl)c1 (configuration not stated)
inactive: [1]; at 50.0 µM 10.5% | [2]; at 50.0 µM 18.1% | [3]; at 50.0 µM 11.1% | [4]; at 50.0 µM 8.1% | [5]; at 50.0 µM -1.85% | [6]; at 50.0 µM 5.3%

CCNCCCl
inactive: [1]; at 50.0 µM 5.35% | [2]; at 50.0 µM 3.4% | [3]; at 50.0 µM 3.7% | [4]; at 50.0 µM 13.6% | [5]; at 50.0 µM 22.4% | [6]; at 50.0 µM -12.1%

CC/C=C\C(O)(C(=O)OC1CN2CCC1CC2)C1CCCC1 (configuration not stated)
inactive: [1]; at 50.0 µM 47.4% | [2]; at 50.0 µM 37.6% | [3]; at 50.0 µM 60.5% | [4]; at 50.0 µM 41.1% | [5]; at 50.0 µM 42.1% | [6]; at 50.0 µM 27.8%

C[Si](C)(C)N(CCCl)CCCl
inactive: [1]; [17] 17% | [2]; [17] 5% | [3]; [17] 11% | [4]; [17] 2% | [5]; [17] 9% | [6]; [17] 5%
active: [1]; [18] 97% | [1]; at 50.0 µM 98% | [2]; [18] 98% | [2]; at 50.0 µM 96.8% | [3]; [18] 98% | [3]; at 50.0 µM 94.3% | [4]; [18] 97% | [4]; at 50.0 µM 92.1% | [5]; [18] 97% | [5]; at 50.0 µM 97.8% | [6]; [18] 97% | [6]; at 50.0 µM 93.9%

CC#CC(O)(C(=O)OC1C2CCN(CC2)C1C)C1=CCCC1 (configuration not stated)
inactive: [1]; at 50.0 µM -58.5% | [2]; at 50.0 µM -9.35% | [3]; at 50.0 µM -18.9% | [4]; at 50.0 µM -19.4% | [5]; at 50.0 µM -2.15% | [6]; at 50.0 µM -53.3%

Cc1cccc(C(O)(C(=O)OCCN2CCCCC2)c2cccc(C)c2)c1
inactive: [1]; at 50.0 µM 16.9% | [2]; at 50.0 µM 13.5% | [3]; at 50.0 µM 23.9% | [4]; at 50.0 µM 5.4% | [5]; at 50.0 µM 23.1% | [6]; at 50.0 µM 17.6%

CC#CC(O)(C(=O)OC1C2CCN(CC2)C1CC)C1CCCC1 (configuration not stated)
inactive: [1]; at 50.0 µM 17.4% | [2]; at 50.0 µM 29.4% | [3]; at 50.0 µM 29.1% | [4]; at 50.0 µM 23.9% | [5]; at 50.0 µM 18.8% | [6]; at 50.0 µM 36.1%

C=C(C)C(O)(C(=O)OC1CN2CCC1CC2)c1cccs1 (configuration not stated)
inactive: [1]; at 50.0 µM -46.6% | [2]; at 50.0 µM -11.2% | [3]; at 50.0 µM 3.9% | [4]; at 50.0 µM -16.4% | [5]; at 50.0 µM 11.4% | [6]; at 50.0 µM -38.2%

CN1CCC(OC(=O)C(O)(c2ccccc2)c2ccccc2)CC1
inactive: [1]; at 50.0 µM 10.4% and 21.6% | [2]; at 50.0 µM 9.05% and -13.1% | [3]; at 50.0 µM 0.3% and -2% | [4]; at 50.0 µM -1.85% and 14.6% | [5]; at 50.0 µM -2.85% and 0.65% | [6]; at 50.0 µM -2.5% and -4.4%

CC(Cl)CN(C)CC(C)Cl (configuration not stated)
inactive: [7]; at 1.2 µM 20% | [7]; at 3.7 µM 52% | [8]; at 1.2 µM -1% | [8]; at 3.7 µM 1% | [8]; at 11.0 µM 6% | [8]; at 33.0 µM 9% | [8]; at 100.0 µM 10% | [9]; at 1.2 µM 24% | [9]; at 3.7 µM 59% | [10]; at 1.2 µM -1% | [10]; at 3.7 µM -1% | [10]; at 11.0 µM 15% | [10]; at 33.0 µM -12% | [10]; at 100.0 µM 7% | [1]; at 1.2 µM 10% | [1]; at 3.7 µM 30% | [1]; [17] 36% | [1]; at 11.0 µM 60% | [2]; at 1.2 µM 4% | [2]; at 3.7 µM 11% | [2]; [17] 7% | [2]; at 11.0 µM 20% | [2]; at 33.0 µM 41% | [2]; at 100.0 µM 54% | [11]; at 1.2 µM 8% | [11]; at 3.7 µM 17% | [11]; at 11.0 µM 39% | [3]; [17] 31% | [3]; at 50.0 µM 59.5% | [12]; at 1.2 µM -1% | [12]; at 3.7 µM -2% | [12]; at 11.0 µM -2% | [12]; at 33.0 µM 3% | [12]; at 100.0 µM 13% | [4]; [17] 6% | [5]; at 1.2 µM -1% | [5]; at 3.7 µM -2% | [5]; [17] -25% | [5]; at 11.0 µM 5% | [5]; at 33.0 µM 3% | [5]; [18] 8% | [5]; at 50.0 µM 18.1% | [5]; at 100.0 µM 5% | [13]; at 1.2 µM 2% | [13]; at 3.7 µM 4% | [13]; at 11.0 µM 8% | [13]; at 33.0 µM 14% | [13]; at 100.0 µM 15% | [14]; at 1.2 µM 2% | [14]; at 3.7 µM 5% | [14]; at 11.0 µM 18% | [14]; at 33.0 µM 19% | [14]; at 100.0 µM 22% | [15]; at 1.2 µM 10% | [15]; at 3.7 µM 23% | [15]; at 11.0 µM 45% | [15]; at 33.0 µM 59% | [15]; at 100.0 µM 59% | [6]; [17] 23% | [6]; at 50.0 µM 65.7% | [16]; at 1.2 µM 36%
active: [7]; at 11.0 µM 87% | [7]; at 33.0 µM 94% | [7]; at 100.0 µM 95% | [9]; at 11.0 µM 90% | [9]; at 33.0 µM 95% | [9]; at 100.0 µM 96% | [1]; at 33.0 µM 88% | [1]; [18] 95% | [1]; at 50.0 µM 72.8% | [1]; at 100.0 µM 92% | [2]; [18] 74% | [2]; at 50.0 µM 74.3% | [11]; at 33.0 µM 83% | [11]; at 100.0 µM 83% | [3]; [18] 73% | [4]; [18] 82% | [4]; at 50.0 µM 73.8% | [6]; [18] 95% | [16]; at 3.7 µM 78% | [16]; at 11.0 µM 93% | [16]; at 33.0 µM 94% | [16]; at 100.0 µM 95%
